# According to the supplement of paper PMC8728848:
# This is one part of a sample in which the strongest signals are shown more often than they occur.
# Experiments:
# Assay in all cases: glycan array binding signal (z-score within array); higher = stronger binding
# Conditions in all cases: glycan notation: IUPAC condensed, linker removed
# [1] = molecular target: Fuc(a1-2)[GalNAc(a1-3)]Gal(b1-4)Glc
# [2] = molecular target: Fuc(a1-2)[GalNAc(a1-3)]Gal(b1-4)GlcNAc
# [3] = molecular target: Fuc(a1-3)[Gal(b1-4)]GlcNAc6S
# [4] = molecular target: Gal(a1-3)Gal(b1-3)Glc
# [5] = molecular target: Gal(a1-6)Glc
# [6] = molecular target: Gal(b1-3)Gal
# [7] = molecular target: Gal(b1-3)GalNAc(b1-3)Gal(b1-4)GlcNAc
# [8] = molecular target: Gal(b1-3)GlcNAc(b1-3)Gal(b1-3)GlcNAc
# [9] = molecular target: Gal(b1-3)[GlcNAc(b1-6)]GlcNAc
# [10] = molecular target: Gal(b1-4)Glc6S
# [11] = molecular target: Gal(b1-4)GlcNAc(b1-3)[Gal(b1-4)GlcNAc(b1-6)]GalNAc
# [12] = molecular target: Gal3S(b1-4)Glc6S
# [13] = molecular target: Gal3S(b1-4)GlcNAc6S
# [14] = molecular target: Gal3S6S(b1-4)GlcNAc6S
# [15] = molecular target: Gal4S6S(b1-4)GlcNAc
# [16] = molecular target: GlcNAc(b1-3)GalNAc
# [17] = molecular target: GlcNAc(b1-3)[GlcNAc(b1-4)][GlcNAc(b1-6)]GlcNAc
# [18] = molecular target: Man(a1-2)Man(a1-3)Man
# [19] = molecular target: Neu5Ac(a2-3)Gal(b1-3)GalNAc
# [20] = molecular target: Neu5Ac(a2-3)GalNAc
binder,measurement,setting,value
"TLR-2 (Homo sapiens), O60603 (protein) ESSNQASLSCDRNGICKGSSGSLNSIPSGLTEAVKSLDLSNNRITYISNSDLQRCVNLQALVLTSNGINTIEEDSFSSLGSLEHLDLSYNYLSNLSSSWFKPLSSLTFLNLLGNPYKTLGETSLFSHLTKLQILRVGNMDTFTKIQRKDFAGLTFLEELEIDASDLQSYEPKSLKSIQNVSHLILHMKQHILLLEIFVDVTSSVECLELRDTDLDTFHFSELSTGETNSLIKKFTFRNVKITDESLFQVMKLLNQISGLLELEFDDCTLNGVGNFRASDNDRVIDPGKVETLTIRRLHIPRFYLFYDLSTLYSLTERVKRITVENSKVFLVPCLLSQHLKSLEYLDLSENLMVEEYLKNSACEDAWPSLQTLILRQNHLASLEKTGETLLTLKNLTNIDISKNSFHSMPETCQWPEKMKYLNLSSTRIHSVTGCIPKTLEILDVSNNNLNLFSLNLPQLKELYISRNKLMTLPDASLLPMLLVLKISRNAITTFSKEQLDSFHTLKTLEAGGNNFICSCEFLSFTQEQQALAKVLIDWPANYLCDSPSHVRGQQVQDVRLSVSECHRT",glycan array binding signal (z-score),[1],-0.171
same,glycan array binding signal (z-score),[2],-0.641
same,glycan array binding signal (z-score),[3],1.73
same,glycan array binding signal (z-score),[4],0.332
same,glycan array binding signal (z-score),[5],0.107
same,glycan array binding signal (z-score),[6],-0.373
same,glycan array binding signal (z-score),[7],0.222
same,glycan array binding signal (z-score),[8],2.09
same,glycan array binding signal (z-score),[9],-0.901
same,glycan array binding signal (z-score),[10],0.191
same,glycan array binding signal (z-score),[11],-0.313
same,glycan array binding signal (z-score),[12],0.975
same,glycan array binding signal (z-score),[13],1.8
same,glycan array binding signal (z-score),[14],2.11
same,glycan array binding signal (z-score),[15],1.75
same,glycan array binding signal (z-score),[16],0.492
same,glycan array binding signal (z-score),[17],-0.43
same,glycan array binding signal (z-score),[18],-0.592
same,glycan array binding signal (z-score),[19],-0.699
same,glycan array binding signal (z-score),[20],-0.527
